Test results as given in US20230302100A1.

Target: denosumab (XGEVA)
Test: cell-based or functional assay

IdeS BX1001865 (enzyme) gave a Conc. of enzyme for 1st IgG heavy chain cleavage (IgG to scIgG), SDS-PAGE of 14 ng/mL and a Conc. of enzyme for 2nd IgG2 (XGEVA) heavy chain cleavage (scIgG to F(ab')2), SDS-PAGE of 1100 ng/mL.
